Measurements taken from patent US20030032580A1, “Use of agonists or antagonists of the 5-HT7 receptor to treat disorders of the bladder” (Synaptic Pharmaceutical Corporation, priority 1999, published 2003).
Each block holds one compound with its values, some of them ahead of it.

Sequences of proteins named here, by UniProt entry; tags and fusion partners are left off.
UniProt P30994, whole entry: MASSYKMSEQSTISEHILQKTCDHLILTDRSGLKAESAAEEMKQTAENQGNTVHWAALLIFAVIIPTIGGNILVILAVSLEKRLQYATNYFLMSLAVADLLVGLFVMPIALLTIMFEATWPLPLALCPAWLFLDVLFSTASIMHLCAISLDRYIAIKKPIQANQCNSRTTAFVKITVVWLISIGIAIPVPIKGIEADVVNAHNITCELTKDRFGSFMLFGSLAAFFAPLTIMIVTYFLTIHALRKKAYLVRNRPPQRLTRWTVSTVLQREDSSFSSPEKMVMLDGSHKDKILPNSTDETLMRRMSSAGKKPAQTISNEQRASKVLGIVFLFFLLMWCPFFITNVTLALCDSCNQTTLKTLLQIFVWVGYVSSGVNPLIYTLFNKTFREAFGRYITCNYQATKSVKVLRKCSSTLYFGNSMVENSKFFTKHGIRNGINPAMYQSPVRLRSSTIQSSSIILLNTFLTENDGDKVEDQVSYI
UniProt P32305, whole entry: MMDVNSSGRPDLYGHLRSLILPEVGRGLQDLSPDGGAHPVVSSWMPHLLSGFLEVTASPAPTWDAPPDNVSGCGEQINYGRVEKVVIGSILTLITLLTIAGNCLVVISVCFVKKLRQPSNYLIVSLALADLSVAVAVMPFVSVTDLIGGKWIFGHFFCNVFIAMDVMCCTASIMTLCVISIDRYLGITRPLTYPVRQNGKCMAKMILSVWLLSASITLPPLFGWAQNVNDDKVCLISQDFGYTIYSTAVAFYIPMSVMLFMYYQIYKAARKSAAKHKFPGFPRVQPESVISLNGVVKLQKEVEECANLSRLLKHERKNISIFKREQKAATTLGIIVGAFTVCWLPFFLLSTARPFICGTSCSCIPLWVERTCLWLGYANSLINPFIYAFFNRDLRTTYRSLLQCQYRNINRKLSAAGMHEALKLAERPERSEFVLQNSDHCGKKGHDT

Experiments:
[1] = target: cloned rat 5-HT2B receptor (Rattus norvegicus, UniProt P30994); conditions: cited from earlier work; for pKB, 5-HT2B: Wainscott et al., 1993
[2] = target: 5-HT2B receptor (second phase of the concentration-effect curve to 5-CT in the rat bladder) (Rattus norvegicus, UniProt P30994); experiment: Electrically stimulated rat bladder strips: second (low potency) phase of the concentration-effect curve to 5-CT
[3] = target: 5-HT7 receptor (first phase of the concentration-effect curve to 5-CT in the rat bladder) (Rattus norvegicus, UniProt P32305); experiment: Electrically stimulated rat bladder strips: first (high potency) phase of the concentration-effect curve to 5-CT
[4] = target: cloned rat 5-HT7 receptor (Rattus norvegicus, UniProt P32305); conditions: references 2 and 3; cited from earlier work
5-HT7 = conditions: Hoyer et al., 1994; cited from earlier work

Compound: O=C(CCCN1CCC2(CC1)C(=O)NCN2c1ccccc1)c1ccc(F)cc1 [spiperone]
pKB, 5-HT2B [1]: 5.5

Kb [2]: 39.8 nM
Compound: CN1C[C@@H](NS(=O)(=O)N(C)C)C[C@@H]2c3cccc4c3c(cn4C)C[C@H]21 [mesulergine]
pKB, 5-HT2B [1]: 7.4-7.8 | pK1 ([1]; cloned rat 5-HT2B receptor, reference 1 (Wainscott et al., 1993)): 7.4-7.8

Compound: CSc1ccc2c(c1)C(N1CCN(C)CC1)Cc1ccccc1S2 (stereo not drawn) [methiothepin]
first-phase affinity greater than that for the 5-HT7, subtype ([3]; bladder pKB versus published value (Hoyer et al., 1994)): 40 fold | first-phase affinity greater than that for 5-HT1A, 5-HT1B, 5-HT1D, 5-HT1E, 5-HT1F and 5-HT5A subtypes ([3]; bladder pKB versus published values): at least 100 fold | pKB ([3]; inhibition of the first phase of the concentration-effect curve to 5-CT in the rat bladder, antagonists tested in the presence of 0.1 μM 1-NP): 9.4 | pK1 [4]: 9.4 | pKB, 5-HT7, subtype (5-HT7): 7.8
